Measurements from article PMC6009943, “One-pot three-component synthesis of novel spirooxindoles with potential cytotoxic activity against triple-negative breast cancer MDA-MB-231 cells” (Journal of Enzyme Inhibition and Medicinal Chemistry, 2017).

System: WI-38 cells
Assay: In vitro cytotoxic activity, WI-38 cells (MTT)
Format: cell-based, human
Conditions: WI-38 versus MDA-MB-231
Procedure: WI-38 cells ([…]), were obtained from American Type Culture Collection. The cells were propagated in DMEM supplemented with 10% heat-inactivated FBS (Hyclone), 10 μg/ml of insulin (Sigma), and 1% penicillin-streptomycin. All of the other chemicals and reagents were from Sigma, or Invitrogen. Cytotoxicity was determined using MTT assay following a reported procedure.

SMILES: N#CC1=C(c2ccccc2)Nc2c(c(-c3cccs3)nn2-c2ccccc2)C12C(=O)Nc1ccc(Cl)cc12 (stereo not shown) [Compound 6e, 5-Chloro-2-oxo-1',6'-diphenyl-3'-(thiophen-2-yl)-1',7'-dihydrospiro[indoline-3,4'-pyrazolo[3,4-b]pyridine]-5'-carbonitrile]
- Selectivity Index: 6.8
